Source: paper PMC10407255, “Comparison of activity, structure, and dynamics of SF-1 and LRH-1 complexed with small molecule modulators” (The Journal of Biological Chemistry, 2023)

By UniProt entry, the sequences of proteins in these tests, tags left out.
UniProt Q13285, whole entry: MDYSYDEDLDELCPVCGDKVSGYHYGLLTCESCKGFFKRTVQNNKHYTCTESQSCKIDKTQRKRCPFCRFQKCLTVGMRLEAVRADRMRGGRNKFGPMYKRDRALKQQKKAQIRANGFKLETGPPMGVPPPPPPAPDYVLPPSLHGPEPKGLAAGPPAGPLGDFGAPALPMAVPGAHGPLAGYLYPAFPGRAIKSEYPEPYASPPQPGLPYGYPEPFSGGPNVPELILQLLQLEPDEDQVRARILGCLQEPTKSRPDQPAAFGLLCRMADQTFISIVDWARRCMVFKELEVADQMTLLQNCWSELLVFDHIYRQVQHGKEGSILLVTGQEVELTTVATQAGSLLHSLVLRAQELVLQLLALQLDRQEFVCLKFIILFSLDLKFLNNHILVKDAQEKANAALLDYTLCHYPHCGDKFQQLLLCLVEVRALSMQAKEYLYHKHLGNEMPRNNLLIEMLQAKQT
UniProt O00482, whole entry: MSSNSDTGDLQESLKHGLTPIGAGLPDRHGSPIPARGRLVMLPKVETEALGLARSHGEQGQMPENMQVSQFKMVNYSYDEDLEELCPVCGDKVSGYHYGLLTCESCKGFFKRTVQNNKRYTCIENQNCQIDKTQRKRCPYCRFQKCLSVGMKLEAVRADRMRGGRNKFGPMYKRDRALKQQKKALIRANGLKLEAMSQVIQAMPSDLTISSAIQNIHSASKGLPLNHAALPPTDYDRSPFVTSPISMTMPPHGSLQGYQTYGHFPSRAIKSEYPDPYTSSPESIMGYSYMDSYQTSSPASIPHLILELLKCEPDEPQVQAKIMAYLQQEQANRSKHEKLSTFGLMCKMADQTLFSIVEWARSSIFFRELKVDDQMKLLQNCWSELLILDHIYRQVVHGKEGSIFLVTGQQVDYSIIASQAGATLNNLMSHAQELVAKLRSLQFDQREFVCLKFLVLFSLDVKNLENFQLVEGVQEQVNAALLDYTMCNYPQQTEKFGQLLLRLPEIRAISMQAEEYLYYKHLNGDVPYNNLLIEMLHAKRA

Legend:
SF-1 = target: T1, SF-1 (Homo sapiens, UniProt Q13285); test: Luciferase reporter assay, SF-1, HeLa cells; assay type: cell-based; settings: small molecule at 0.1, 1, and 10 μM, relative to DMSO control
T1 construct: expressed in transfected cells; host or cells: HeLa
Description: (§1) Reporter assays were conducted as described previously ([47], [52], [53]). Briefly, HeLa cells were seeded at ∼7500 to 10,000 cells per well in 96-well plates (white-walled, clear bottom) in MEMα + 10% FBS – charcoal/dextran treated. Once cells reached 80 to 90% confluence, they were transfected with LRH-1 (in pCI vector, 5 ng/well) or SF-1 (in pcDNA vector, 5 ng/well), a reporter plasmid with an NR5A response element derived from the SHP promoter cloned upstream of Firefly Luciferase (in pGL3-Basic vector, 50 ng/well), and a plasmid expressing Renilla Luciferase constitutively from a CMV promoter (1 ng/well). Cells were transfected with FuGENE at a ratio of 3:1 (FuGENE:DNA). Twenty-four hours after transfection, compounds were diluted in Opti-MEM and introduced to cells at the final concentrations indicated in figures (final DMSO concentration was 0.37%). Luciferase signal was measured after ∼24 h using the DualGlo kit (Promega) with a BioTek Neo plate reader. Each experiment was conducted with three biological replicates, each with three technical replicates averaged prior to data analysis. Firefly Luciferase signal for each well was divided by the well’s Renilla Luciferase signal intensity and then normalized relative to the DMSO control. Data were analyzed with GraphPad Prism (version 9) using a stimulating dose–response curve (Hill slope = 1).

LRH-1 = target: T2, LRH-1 (Homo sapiens, UniProt O00482); test: Luciferase reporter assay, LRH-1, HeLa cells; assay type: cell-based; settings: small molecule at 0.1, 1, and 10 μM, relative to DMSO control
T2 construct: expressed in transfected cells; host or cells: HeLa
Description: as §1

C=C(c1ccccc1)C12CCC(n3ccnn3)C1CC(CCCCCC)=C2c1ccccc1 (centres unmarked) [7N]
SF-1 activation in luciferase reporter assay (SF-1): without activating SF-1
LRH-1 activation in luciferase reporter assay (LRH-1): activated LRH-1
